Target: T1, NET (norepinephrine transporter) (Rattus norvegicus, UniProt Q63380)
T1 construct: or frontoparietal cerebral cortex (for 5-HTT and NET); from tissue; host or cells: rat brain frontoparietal cerebral cortex, crude membrane fraction
Experiment: NET assay, [3H]nisoxetine binding, rat frontoparietal cerebral cortex membranes
Conditions: radioligand, 50 Ci/mmol
Experimental: N-phthalimidopropyl-β-CIT (see Example 10) was analyzed as follows. Stock solutions (1 mM) of test agents were made in 95% ethanol/DMSO (1/1, v/v) and stored at −5° C. until used by diluting in a large excess of each assay buffer. Agents are tested at six concentrations in duplicate, with a crude membrane fraction of homogenates of rat brain corpus striatum (for DAT assays) in Tris-citrate buffer (pH 7.4) containing Na^+ ([…]) and Mg^2+ (4 mM) or frontoparietal cerebral cortex (for 5-HTT and NET) in 50 mM Tris-HCl buffer (pH 7.4) containing Na^+ ([…]) and K^+ (5 mM) following methods reported by Neumeyer et al., J. Med. Chem. 37, 1558-1561 (1991), the whole of which is incorporated by reference herein.

The chains behind the UniProt entries cited, without tags or fusion partners. Residues count along the entry.
UniProt Q63380, 1-617: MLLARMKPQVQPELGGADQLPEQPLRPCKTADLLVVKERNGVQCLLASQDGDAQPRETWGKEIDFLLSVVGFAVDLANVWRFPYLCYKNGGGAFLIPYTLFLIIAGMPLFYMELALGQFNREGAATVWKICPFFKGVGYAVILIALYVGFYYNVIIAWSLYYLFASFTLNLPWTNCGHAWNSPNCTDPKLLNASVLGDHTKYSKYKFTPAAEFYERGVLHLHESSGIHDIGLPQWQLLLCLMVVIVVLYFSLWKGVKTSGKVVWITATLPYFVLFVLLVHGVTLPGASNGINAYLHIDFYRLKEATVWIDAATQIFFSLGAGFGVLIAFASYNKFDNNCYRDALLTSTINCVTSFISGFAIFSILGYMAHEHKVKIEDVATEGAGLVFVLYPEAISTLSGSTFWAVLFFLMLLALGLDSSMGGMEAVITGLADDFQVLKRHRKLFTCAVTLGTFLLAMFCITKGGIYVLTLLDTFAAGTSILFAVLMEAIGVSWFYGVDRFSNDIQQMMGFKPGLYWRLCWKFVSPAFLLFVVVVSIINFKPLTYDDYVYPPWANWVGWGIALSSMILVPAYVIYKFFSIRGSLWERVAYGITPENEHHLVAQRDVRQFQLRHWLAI

Substance: [^3H]nisoxetine [reference compound]
- Kd: 0.8 nM
